The values below come from ChEMBL document CHEMBL3259536, “New 2H-chromene-3-carboxamide derivatives: design, synthesis and use as inhibitors of hMAO” (Eur J Med Chem, 2014).

Protein sequences, listed by entry. Tags and fused reporters are not part of them.
UniProt P27338, whole entry: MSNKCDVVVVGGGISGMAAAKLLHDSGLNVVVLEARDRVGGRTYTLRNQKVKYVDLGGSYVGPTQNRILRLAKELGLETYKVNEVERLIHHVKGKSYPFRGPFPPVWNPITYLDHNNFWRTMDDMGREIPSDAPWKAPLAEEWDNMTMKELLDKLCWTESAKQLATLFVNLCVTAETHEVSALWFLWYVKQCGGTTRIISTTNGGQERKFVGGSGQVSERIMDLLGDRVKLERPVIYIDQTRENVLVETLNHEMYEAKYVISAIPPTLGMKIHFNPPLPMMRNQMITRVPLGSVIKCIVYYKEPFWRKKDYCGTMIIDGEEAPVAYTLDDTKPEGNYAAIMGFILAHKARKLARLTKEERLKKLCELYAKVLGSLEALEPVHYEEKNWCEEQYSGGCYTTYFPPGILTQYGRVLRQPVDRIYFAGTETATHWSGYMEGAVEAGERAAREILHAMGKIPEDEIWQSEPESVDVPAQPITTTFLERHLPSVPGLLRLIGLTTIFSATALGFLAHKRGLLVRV

For the experiment, the target named is Amine oxidase [flavin-containing] B (Homo sapiens, UniProt P27338). The experiment is described as follows: Inhibition of human recombinant MAO-B expressed in baculovirus infected insect cell microsomes assessed as p-tyramine conversion to resorufin and H2O2 after 15 mins by fluorimetric assay.

Broadly, the IC50 is the concentration needed to halve the response being measured. Consider `O=C(Nc1cccc(C(F)(F)F)c1)c1cc2ccccc2oc1=O`, for which the IC50 was 3.3 µM.

`Cc1cccc(NC(=O)c2cc3ccccc3oc2=O)c1`: the IC50 is 0.93 µM.
